One block for each substance: values may come before it.
Assays:
Experiment in all cases: pyrene-actin polymerization assay; 5 µM c-actin with pyrene-labeled skeletal muscle actin added at 20:1, G-buffer; polymerization induced by 2 mM MgCl2 and 0.1 M KCl; rise of pyrene fluorescence; control without nucleator
[1] = target: human cardiac α-actin mutant p.A295S (human)
[2] = target: human cardiac α-actin mutant p.E361G (human)
[3] = target: human cardiac α-actin mutant p.R312H (human)

- half time of polymerization (t1/2) [1]: 12.2 min
Substance: human cardiac α-actin mutant p.A295S (natural protein)

- half time of polymerization (t1/2) [2]: 4 min
Substance: human cardiac α-actin mutant p.E361G (natural protein)

- half time of polymerization (t1/2) [3]: 13.8 min
Substance: human cardiac α-actin mutant p.R312H (natural protein)

— article PMC8301065
